From IntAct's records for PubMed 19262565

B1: Transcription factor p65 (Homo sapiens), Q04206 (parent)
chain: MDELFPLIFPAEPAQASGPYVEIIEQPKQRGMRFRYKCEGRSAGSIPGERSTDTTKTHPTIKINGYTGPGTVRISLVTKDPPHRPHPHELVGKDCRDGFYEAELCPDRCIHSFQNLGIQCVKKRDLEQAISQRIQTNNNPFQVPIEEQRGDYDLNAVRLCFQVTVRDPSGRPLRLPPVLSHPIFDNRAPNTAELKICRVNRNSGSCLGGDEIFLLCDKVQKEDIEVYFTGPGWEARGSFSQADVHRQVAIVFRTPPYADPSLQAPVRVSMQLRRPSDRELSEPMEFQYLPDTDDRHRIEEKRKRTYETFKSIMKKSPFSGPTDPRPPPRRIAVPSRSSASVPKPAPQPYPFTSSLSTINYDEFPTMVFPSGQISQASALAPAPPQVLPQAPAPAPAPAMVSALAQAPAPVPVLAPGPPQAVAPPAPKPTQAGEGTLSEALLQLQFDDEDLGALLGNSTDPAVFTDLASVDNSEFQQLLNQGIPVAPHTTEPMLMEYPEAITRLVTGAQRPPDPAPAPLGAPGLPNGLLSGDEDFSSIADMDFSALLSQISS
partner: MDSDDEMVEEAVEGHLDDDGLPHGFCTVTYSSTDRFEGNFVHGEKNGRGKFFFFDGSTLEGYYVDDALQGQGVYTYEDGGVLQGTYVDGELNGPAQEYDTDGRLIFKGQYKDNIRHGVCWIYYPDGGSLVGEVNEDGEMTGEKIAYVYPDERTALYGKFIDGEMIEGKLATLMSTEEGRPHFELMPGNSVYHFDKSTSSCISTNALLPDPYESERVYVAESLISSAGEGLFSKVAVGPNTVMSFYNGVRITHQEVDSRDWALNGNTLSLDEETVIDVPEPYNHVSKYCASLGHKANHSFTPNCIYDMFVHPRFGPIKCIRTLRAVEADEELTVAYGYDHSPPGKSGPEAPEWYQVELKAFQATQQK

Variants of: B1
Conditions: with setd7_human SETD7, Q8WTS6

effect of a mutation on the interaction	Variant
disrupting interaction	MDELFPLIFPAEPAQASGPYVEIIEQPKQRGMRFRYKCEGRSAGSIPGERSTDTTKTHPTIKINGYTGPGTVRISLVTKDPPHRPHPHELVGKDCRDGFYEAELCPDRCIHSFQNLGIQCVKKRDLEQAISQRIQTNNNPFQVPIEEQRGDYDLNAVRLCFQVTVRDPSGRPLRLPPVLSHPIFDNRAPNTAELKICRVNRNSGSCLGGDEIFLLCDKVQKEDIEVYFTGPGWEARGSFSQADVHRQVAIVFRTPPYADPSLQAPVRVSMQLRRPSDRELSEPMEFQYLPDTDDRHRIEEKRKRTYETFKSIMKRSPFSGPTDPRPPPRRIAVPSRSSASVPKPAPQPYPFTSSLSTINYDEFPTMVFPSGQISQASALAPAPPQVLPQAPAPAPAPAMVSALAQAPAPVPVLAPGPPQAVAPPAPKPTQAGEGTLSEALLQLQFDDEDLGALLGNSTDPAVFTDLASVDNSEFQQLLNQGIPVAPHTTEPMLMEYPEAITRLVTGAQRPPDPAPAPLGAPGLPNGLLSGDEDFSSIADMDFSALLSQISS [K315R]
disrupting interaction	MDELFPLIFPAEPAQASGPYVEIIEQPKQRGMRFRYKCEGRSAGSIPGERSTDTTKTHPTIKINGYTGPGTVRISLVTKDPPHRPHPHELVGKDCRDGFYEAELCPDRCIHSFQNLGIQCVKKRDLEQAISQRIQTNNNPFQVPIEEQRGDYDLNAVRLCFQVTVRDPSGRPLRLPPVLSHPIFDNRAPNTAELKICRVNRNSGSCLGGDEIFLLCDKVQKEDIEVYFTGPGWEARGSFSQADVHRQVAIVFRTPPYADPSLQAPVRVSMQLRRPSDRELSEPMEFQYLPDTDDRHRIEEKRKRTYETFKSIMRKSPFSGPTDPRPPPRRIAVPSRSSASVPKPAPQPYPFTSSLSTINYDEFPTMVFPSGQISQASALAPAPPQVLPQAPAPAPAPAMVSALAQAPAPVPVLAPGPPQAVAPPAPKPTQAGEGTLSEALLQLQFDDEDLGALLGNSTDPAVFTDLASVDNSEFQQLLNQGIPVAPHTTEPMLMEYPEAITRLVTGAQRPPDPAPAPLGAPGLPNGLLSGDEDFSSIADMDFSALLSQISS [K314R]

Variants of: B1
Conditions: with setd7_human SETD7, Q8WTS6
Remark: another data set of the same source

effect of a mutation on the interaction	Variant
decreasing interaction	MDELFPLIFPAEPAQASGPYVEIIEQPKQRGMRFRYKCEGRSAGSIPGERSTDTTKTHPTIKINGYTGPGTVRISLVTKDPPHRPHPHELVGKDCRDGFYEAELCPDRCIHSFQNLGIQCVKKRDLEQAISQRIQTNNNPFQVPIEEQRGDYDLNAVRLCFQVTVRDPSGRPLRLPPVLSHPIFDNRAPNTAELKICRVNRNSGSCLGGDEIFLLCDKVQKEDIEVYFTGPGWEARGSFSQADVHRQVAIVFRTPPYADPSLQAPVRVSMQLRRPSDRELSEPMEFQYLPDTDDRHRIEEKRKRTYETFKSIMRKSPFSGPTDPRPPPRRIAVPSRSSASVPKPAPQPYPFTSSLSTINYDEFPTMVFPSGQISQASALAPAPPQVLPQAPAPAPAPAMVSALAQAPAPVPVLAPGPPQAVAPPAPKPTQAGEGTLSEALLQLQFDDEDLGALLGNSTDPAVFTDLASVDNSEFQQLLNQGIPVAPHTTEPMLMEYPEAITRLVTGAQRPPDPAPAPLGAPGLPNGLLSGDEDFSSIADMDFSALLSQISS [K314R]
